Sequences of proteins named here, by UniProt entry; tags and fusion partners are left off.
UniProt P0DMS8, whole entry: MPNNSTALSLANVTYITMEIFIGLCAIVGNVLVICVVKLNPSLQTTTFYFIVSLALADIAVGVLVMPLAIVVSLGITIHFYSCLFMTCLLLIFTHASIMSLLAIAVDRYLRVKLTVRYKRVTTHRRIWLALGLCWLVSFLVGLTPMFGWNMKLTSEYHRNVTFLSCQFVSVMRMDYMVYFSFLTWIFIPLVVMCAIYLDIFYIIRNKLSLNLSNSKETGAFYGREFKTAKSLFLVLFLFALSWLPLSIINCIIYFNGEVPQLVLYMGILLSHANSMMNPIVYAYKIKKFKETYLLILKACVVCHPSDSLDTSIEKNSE

According to ChEMBL document CHEMBL6109068, “Design, synthesis, and biological evaluation of 5'-deoxy (N)-methanocarbanucleoside derivatives as A3 adenosine receptor ligands” (Bioorg Med Chem Lett, 2025):

Target: Adenosine receptor A3 (Homo sapiens, UniProt P0DMS8)
Assay: Displacement of [3H]-NECA from human A3AR stably expressed in HeLa cell membrane at 10 uM relative to control
Assay type: cell membranes

SMILES | inhibition [%]
C[C@]12C[C@@H]1[C@@H](n1cnc3c(NCc4cccc(F)c4)ncnc31)[C@H](O)[C@@H]2O | 80
C[C@]12C[C@@H]1[C@@H](n1cnc3c(N)ncnc31)[C@H](O)[C@@H]2O | 89
